The chains behind the UniProt entries cited, without tags or fusion partners. Where a name states a change or a piece, a line headed by the entry shows the natural chain unless it says otherwise. Residues count along the entry.
UniProt P00533, 25-1210 limits assumed: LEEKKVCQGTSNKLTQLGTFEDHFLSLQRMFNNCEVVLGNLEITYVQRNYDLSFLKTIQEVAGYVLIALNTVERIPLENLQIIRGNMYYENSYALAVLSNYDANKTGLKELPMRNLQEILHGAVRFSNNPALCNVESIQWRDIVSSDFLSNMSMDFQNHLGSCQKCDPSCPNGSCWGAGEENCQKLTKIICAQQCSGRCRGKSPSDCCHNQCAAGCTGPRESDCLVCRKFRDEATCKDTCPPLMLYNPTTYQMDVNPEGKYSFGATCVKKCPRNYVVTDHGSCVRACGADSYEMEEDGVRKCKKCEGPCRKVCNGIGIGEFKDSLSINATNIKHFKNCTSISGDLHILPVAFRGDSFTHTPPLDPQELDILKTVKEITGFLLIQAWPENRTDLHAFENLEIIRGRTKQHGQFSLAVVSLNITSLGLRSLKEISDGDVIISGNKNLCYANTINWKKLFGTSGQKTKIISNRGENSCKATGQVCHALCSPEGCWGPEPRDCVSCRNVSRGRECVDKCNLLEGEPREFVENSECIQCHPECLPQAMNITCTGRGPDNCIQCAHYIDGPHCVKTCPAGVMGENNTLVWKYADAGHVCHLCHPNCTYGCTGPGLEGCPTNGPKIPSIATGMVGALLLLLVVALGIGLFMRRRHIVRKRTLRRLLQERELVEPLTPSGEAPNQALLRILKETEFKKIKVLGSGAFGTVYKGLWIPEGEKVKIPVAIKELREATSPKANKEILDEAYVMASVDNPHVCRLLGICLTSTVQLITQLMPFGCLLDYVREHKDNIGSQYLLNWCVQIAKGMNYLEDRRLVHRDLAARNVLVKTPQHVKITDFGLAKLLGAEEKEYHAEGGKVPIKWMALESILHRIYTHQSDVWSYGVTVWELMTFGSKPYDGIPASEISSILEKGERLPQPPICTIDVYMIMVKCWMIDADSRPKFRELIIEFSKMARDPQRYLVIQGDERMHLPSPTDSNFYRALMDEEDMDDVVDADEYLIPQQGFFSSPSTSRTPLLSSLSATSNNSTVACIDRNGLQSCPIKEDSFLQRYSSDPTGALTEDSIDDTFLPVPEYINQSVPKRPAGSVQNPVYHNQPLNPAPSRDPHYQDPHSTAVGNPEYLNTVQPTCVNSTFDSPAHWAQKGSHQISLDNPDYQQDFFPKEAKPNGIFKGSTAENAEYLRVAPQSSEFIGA
UniProt P00533, 25-1210 T790M/L858R limits assumed: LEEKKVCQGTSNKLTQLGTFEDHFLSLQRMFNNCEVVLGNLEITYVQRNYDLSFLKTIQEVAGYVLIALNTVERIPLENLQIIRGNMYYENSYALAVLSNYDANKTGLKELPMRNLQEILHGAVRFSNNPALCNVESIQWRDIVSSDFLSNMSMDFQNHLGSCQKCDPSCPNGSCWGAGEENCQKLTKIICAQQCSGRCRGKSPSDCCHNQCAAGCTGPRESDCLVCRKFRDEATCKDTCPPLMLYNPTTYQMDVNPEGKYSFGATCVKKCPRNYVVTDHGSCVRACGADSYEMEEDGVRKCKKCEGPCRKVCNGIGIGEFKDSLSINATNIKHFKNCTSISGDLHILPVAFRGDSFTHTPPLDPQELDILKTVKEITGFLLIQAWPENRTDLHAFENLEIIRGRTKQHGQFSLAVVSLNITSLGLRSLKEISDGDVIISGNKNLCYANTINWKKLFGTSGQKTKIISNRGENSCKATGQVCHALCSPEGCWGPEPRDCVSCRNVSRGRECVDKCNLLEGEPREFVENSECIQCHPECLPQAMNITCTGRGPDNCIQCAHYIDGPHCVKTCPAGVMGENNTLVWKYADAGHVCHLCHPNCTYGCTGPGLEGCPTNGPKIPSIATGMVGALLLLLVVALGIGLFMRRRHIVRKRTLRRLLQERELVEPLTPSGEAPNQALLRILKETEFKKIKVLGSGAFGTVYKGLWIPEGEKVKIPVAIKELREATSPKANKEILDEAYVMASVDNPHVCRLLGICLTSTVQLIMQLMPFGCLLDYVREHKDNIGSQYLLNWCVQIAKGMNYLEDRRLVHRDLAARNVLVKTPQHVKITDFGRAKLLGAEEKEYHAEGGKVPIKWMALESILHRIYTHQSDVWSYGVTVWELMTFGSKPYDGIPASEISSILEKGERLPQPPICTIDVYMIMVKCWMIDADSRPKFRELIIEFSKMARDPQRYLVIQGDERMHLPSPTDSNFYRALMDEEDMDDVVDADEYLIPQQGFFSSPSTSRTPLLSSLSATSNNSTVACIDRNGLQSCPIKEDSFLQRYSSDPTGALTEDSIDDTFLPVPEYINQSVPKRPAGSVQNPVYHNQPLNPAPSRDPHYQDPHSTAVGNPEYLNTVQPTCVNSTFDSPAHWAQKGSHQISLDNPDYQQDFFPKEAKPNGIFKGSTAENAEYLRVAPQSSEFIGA

According to paper PMC11982232, “Factors affecting irreversible inhibition of EGFR and influence of chirality on covalent binding” (Communications Chemistry, 2025):

Tests used:
[1] = biological target: EGFR DM (L858R/T790M) (Homo sapiens, UniProt P00533, L858R/T790M); experiment: TR-FRET probe displacement assay, EGFR DM; format: binding; settings: 30 min incubation, mean of at least 3 replicates
[2] = biological target: EGFR WT (Homo sapiens, UniProt P00533); experiment: TR-FRET probe displacement assay, EGFR WT; format: binding; settings: 30 min incubation, mean of at least 3 replicates
[3] = GSH reactivity (glutathione half-life); settings: 4.6 mM GSH, 50 µM compound, pH 7.4 phosphate buffer, 37 °C

For C#CC(=O)N1CCC(Oc2cc3c(Nc4ccc(Cl)c(Cl)c4F)ncnc3cc2OC)CC1, the “DM pIC50” value [1] was 7.8 ± 0.7 and the “WT pIC50” value [2] was 8.0 ± 0.05.

For C#CC(=O)N1CC[C@@H](Oc2cc3c(Nc4ccc(F)c(Cl)c4)ncnc3cc2OC)C1, the “DM pIC50” value [1] was 8.2 ± 0.1, the “WT pIC50” value [2] was 7.8 ± 0.09 and the “GSH t1/2” value [3] was 50 m.

For C#CC(=O)N1CC[C@H](Oc2cc3c(Nc4ccc(F)c(Cl)c4)ncnc3cc2OC)C1, the “DM pIC50” value [1] was 7.8 ± 0.5, the “WT pIC50” value [2] was 7.6 ± 0.05 and the “GSH t1/2” value [3] was 45 m.

With C#CC(=O)N1CCC(Oc2cc3c(Nc4ccc(F)c(Cl)c4)ncnc3cc2OC)CC1 the “WT pIC50” value [2] was 8.3 ± 0.1.

For C#CC(=O)N1CCC(Oc2cc3c(Nc4cc(Cl)ccc4F)ncnc3cc2OC)CC1, the “DM pIC50” value [1] was 7.9 ± 0.09 and the “WT pIC50” value [2] was 8.1 ± 0.09.

In the case of C=CC(=O)N1CCC(Oc2ccc3ncnc(Nc4cccc(Cl)c4F)c3c2)CC1, the “WT pIC50” value [2] is reported as 7.7 ± 0.00.

For C#CC(=O)N1CCC(Oc2cc3c(Nc4cccc(Cl)c4F)ncnc3cc2OC)CC1, the “WT pIC50” value [2] was 8.2 ± 0.04.

For C=CC(=O)N1CCC(Oc2cc3c(Nc4cc(Cl)ccc4F)ncnc3cc2OC)CC1, the “DM pIC50” value [1] was 7.5 ± 0.1 and the “WT pIC50” value [2] was 7.8 ± 0.2.
